Data: US6660768B2, “Parasiticidal compositions and methods of use” (Schering-Plough Animal Health Corporation, priority 2001, dated 2003)

Columns and labels:
[1] = Example 3B: solubility of permethrin in PM (propylene glycol monomethyl ether), DM (diethylene glycol monomethyl ether) and PM or DPM (dipropylene glycol monomethyl ether)/d-limonene mixtures at low temperatures, seeded
Method: These solutions were poured into 100 mL tubes with screw top caps. These tubes were placed in the cold water bath and allowed to come to equilibrium at the temperature of the bath. […] The seeded preparations were then thoroughly shaken, replaced in the bath and allowed to remain in the bath for a 24 hour period. The preparations were then examined for crystallization, then again thoroughly agitated and replaced in the bath for an additional time period. Samples of the supernatant were removed after additional crystallization had occurred.
The solvent mixtures tested were: dipropylene glycol monomethyl ether/d-limonene and propylene glycol monomethyl ether/d-limonene.
These solvent mixtures were evaluated at ratios of 2:1, 1:1, 1:2, and then at 8:2 and 9:1 (the first number refers to one of the glycol ethers, the second number refers to d-limonene).

[2] = Example 3D: solubility of permethrin in propylene glycol monomethyl ether at 20° C. after crystallization at 0° C.; type: physicochemical
Method: The purpose of this study was to determine the solubility of permethrin at 20° C. A 70% solution permethrin in propylene glycol monomethyl ether was prepared. The technical permethrin and original 70% solution were sampled for determination of permethrin concentration and the trans/cis ratio. The solution was placed in the bath, and continually stirred. The bath temperature was lowered to 0° C. After crystallization occurred in the solution, the bath temperature setting was raised to 20° C. and the stirred slurry was allowed to equilibrate over a three-day period. After this time, samples of the supernatant were pulled on consecutive days. The crystals were separated from the liquid layer by filtration, and the crystals were washed with petroleum ether. All resulting samples, of both supernatant and crystals, were analyzed for both total permethrin content and the trans/cis isomer ratio. The crystals were washed to remove any residual solution that might contaminant their analysis.
However, as with all solutions of permethrin that have been observed, the cis isomer will crystallize and precipitate from solution if the temperature is low enough.

[3] = DM, 10° C., Original % permethrin 50
[4] = DM, 10° C., Original % permethrin 55
[5] = DM, 10° C., Original % permethrin 60
[6] = DM, 20° C., Original % permethrin 50
[7] = DM, 20° C., Original % permethrin 55
[8] = DM, 20° C., Original % permethrin 60
[9] = DM, 20° C., Original % permethrin 65
[10] = DM, 20° C., Original % permethrin 75
[11] = DM, 25° C., Original % permethrin 50
[12] = DM, 25° C., Original % permethrin 55
[13] = DM, 25° C., Original % permethrin 60
[14] = DM, 25° C., Original % permethrin 65
[15] = DM, 25° C., Original % permethrin 75
[16] = PM, 5° C., Original % permethrin 50
[17] = PM, 5° C., Original % permethrin 55
[18] = PM, 5° C., Original % permethrin 60
[19] = PM, 5° C., Original % permethrin 65
[20] = PM, 5° C., Original % permethrin 75
[21] = PM, 10° C., Original % permethrin 60
[22] = PM, 10° C., Original % permethrin 65
[23] = PM, 10° C., Original % permethrin 75
[24] = PM, 20° C., Original % permethrin 50
[25] = PM, 20° C., Original % permethrin 55
[26] = PM, 20° C., Original % permethrin 60
[27] = PM, 20° C., Original % permethrin 65
[28] = PM, 20° C., Original % permethrin 75
[29] = PM, 25° C., Original % permethrin 50
[30] = PM, 25° C., Original % permethrin 55
[31] = PM, 25° C., Original % permethrin 60
[32] = PM, 25° C., Original % permethrin 65
[33] = PM, 25° C., Original % permethrin 75

With `CC1(C)C(C=C(Cl)Cl)C1C(=O)OCc1cccc(Oc2ccccc2)c1` (stereo not drawn) [permethrin] the trans/cis isomer ratio ([1]; DM, 5° C., Original % permethrin 65) was 2.26, the Crystals ([1]; DM, 5° C., Original % permethrin 75) was over 90% and the Crystals [1, 3] was 1/4. The trans/cis isomer ratio [1, 3] was 1.82, the Crystals [1, 4] was 1/2 and the trans/cis isomer ratio [1, 4] was 2.08. For the same compound, the Crystals [1, 5] was 2/3, the trans/cis isomer ratio [1, 5] was 1.97 and the Crystals ([1]; DM, 10° C., Original % permethrin 65) was 2/3. The Crystals ([1]; DM, 10° C., Original % permethrin 75) was 3/4, the Crystals [1, 6] was “None” and the trans/cis isomer ratio [1, 6] was 1.24. The Crystals [1, 7] was “None”, the trans/cis isomer ratio [1, 7] was 1.23 and the Crystals [1, 8] was “None”. For the same compound, the trans/cis isomer ratio [1, 8] was 1.31, the Crystals [1, 9] was “None” and the trans/cis isomer ratio [1, 9] was 1.31. For the same compound, the Crystals [1, 10] was “Crystals”, the trans/cis isomer ratio [1, 10] was 1.39 and the Crystals [1, 11] was “None”. For the same compound, the trans/cis isomer ratio [1, 11] was 1.24, the Crystals [1, 12] was “None” and the trans/cis isomer ratio [1, 12] was 1.23. The Crystals [1, 13] was “None”, the trans/cis isomer ratio [1, 13] was 1.22 and the Crystals [1, 14] was “None”. The trans/cis isomer ratio [1, 14] was 1.25, the Crystals [1, 15] was “None” and the trans/cis isomer ratio [1, 15] was 1.30. The Crystals [1, 16] was “None”, the trans/cis isomer ratio [1, 16] was 1.77 and the Crystals [1, 17] was “Few”. The trans/cis isomer ratio [1, 17] was 1.60, the Crystals [1, 18] was 1/3 and the trans/cis isomer ratio [1, 18] was 1.94. The Crystals [1, 19] was 1/2, the trans/cis isomer ratio [1, 19] was 1.98 and the Crystals [1, 20] was over 90%. The trans/cis isomer ratio [1, 20] was 2.21, the Crystals ([1]; PM, 10° C., Original % permethrin 50) was “None” and the Crystals ([1]; PM, 10° C., Original % permethrin 55) was “Few”. For the same compound, the Crystals [1, 21] was 1/3, the trans/cis isomer ratio [1, 21] was 1.51 and the Crystals [1, 22] was 1/2. The trans/cis isomer ratio [1, 22] was 1.99, the Crystals [1, 23] was 2/3 and the trans/cis isomer ratio [1, 23] was 2.05. The Crystals [1, 24] was “None”, the trans/cis isomer ratio [1, 24] was 1.28 and the Crystals [1, 25] was “None”. For the same compound, the trans/cis isomer ratio [1, 25] was 1.29, the Crystals [1, 26] was “None” and the trans/cis isomer ratio [1, 26] was 1.25. For the same compound, the Crystals [1, 27] was “None”, the trans/cis isomer ratio [1, 27] was 1.23 and the Crystals [1, 28] was “None”. For the same compound, the trans/cis isomer ratio [1, 28] was 1.23, the Crystals [1, 29] was “None” and the trans/cis isomer ratio [1, 29] was 1.28. The Crystals [1, 30] was “None”, the trans/cis isomer ratio [1, 30] was 1.28 and the Crystals [1, 31] was “None”. For the same compound, the trans/cis isomer ratio [1, 31] was 1.24, the Crystals [1, 32] was “None” and the trans/cis isomer ratio [1, 32] was 1.22. For the same compound, the Crystals [1, 33] was “None”, the trans/cis isomer ratio [1, 33] was 1.21 and the “Isomer Ratio Trans/Cis” value ([2]; Assay of Crystals (filtered, washed)) was 0. The “Isomer Ratio Trans/Cis” value ([2]; Initial Assay of 70% Solution in propylene glycol monomethyl ether) was 1.34, the “Isomer Ratio Trans/Cis” value ([2]; supernatant, propylene glycol monomethyl ether, 20° C., 2nd Day after Equilibrium Reached) was 1.41 and the “Isomer Ratio Trans/Cis” value ([2]; supernatant, propylene glycol monomethyl ether, 20° C., Assay after Equilibrium Reached) was 1.41.
